Where a name gives a salt, the structure may show the parent alone.
Columns and labels:
KBM5-STI^R1.0 cells = conditions: KBM5-STIR^R1.0 vs parental KBM5
[1] = tested on: KBM-5 chronic myeloid leukemia cells; assay: In vivo antitumor activity (survival) in mice bearing KBM-5 cells; conditions: KBM-5, third (combination) experiment, 50 mg/kg ip, bid × 10
Method: Three to five week-old ICR SCID female mice weighting 20-25 g were obtained from Taconic farms. They were acclimatized for a week prior to the experiment. The animals were maintained on a standard animals feed and drinking water ad libitum. Mice were housed in an air-conditioned room at the temperature of 22±1° C. and 50-70% humidity with a 12/12 h-light/dark cycle throughout the experiment.
Mice were irradiated (1×250 centigray; cGy) and injected i.p. with 2×10^7 or 2,4×10^7 KBM-5 or KBM-5R tumor cells, respectively. […] In primary experiments (with KBM-5 cells) or secondary experiments (with KBM-5R cells), tumor-bearing animals were randomised (8-10 per group and treated by Troxatyl™ i.p. at 5, 10, 20, or 25 mg/kg once a day for 5 consecutive days (days 20-24). Control (untreated) mice received saline. In third experiments (with KBM-5 cells), tumor bearing animals (6 per group) were treated by one of the following schemes:
Animals in complete remission, free of detectable tumor (negative for human DQα-gen) were considered cured.
LTS were electively sacrificed on Day 95 in single agent experiments or on Day 100 in combination treatment experiment.

KBM7-STI^R1.0 cells = conditions: KBM7-STI^R1.0 vs parental KBM7

Cc1ccc(NC(=O)c2ccc(CN3CCN(C)CC3)cc2)cc1Nc1nccc(-c2cccnc2)n1 [STI-571, imatinib mesylate]
IC50 relative to the corresponding parental cell line (KBM5-STI^R1.0 cells): about twenty
T/C % [1]: 108.95%
IC50 relative to the corresponding parental cell line (KBM7-STI^R1.0 cells): about twenty

From patent US20040192652A1, “Pharmaceutical combinations and methods for the treatment of leukemia” (priority 2002, published 2004)
